Amino acid sequences for entries named in this document (tags omitted).
UniProt P27338, whole entry: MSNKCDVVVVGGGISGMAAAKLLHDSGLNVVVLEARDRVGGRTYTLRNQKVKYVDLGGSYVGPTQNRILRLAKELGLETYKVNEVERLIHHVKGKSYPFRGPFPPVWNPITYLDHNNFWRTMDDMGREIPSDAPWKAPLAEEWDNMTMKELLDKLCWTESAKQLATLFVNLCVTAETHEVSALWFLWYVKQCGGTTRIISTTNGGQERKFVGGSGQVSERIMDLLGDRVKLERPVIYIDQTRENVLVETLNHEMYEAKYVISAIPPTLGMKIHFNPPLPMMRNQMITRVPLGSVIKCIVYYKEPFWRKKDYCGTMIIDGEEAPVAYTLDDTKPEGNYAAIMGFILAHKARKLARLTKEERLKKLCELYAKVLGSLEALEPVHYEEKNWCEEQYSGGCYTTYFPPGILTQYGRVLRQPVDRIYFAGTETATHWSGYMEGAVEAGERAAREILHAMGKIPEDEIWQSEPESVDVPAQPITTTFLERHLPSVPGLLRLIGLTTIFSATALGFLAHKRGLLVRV

According to patent US20160081947A1, “SELECTIVE LSD1 AND DUAL LSD1/MAO-B INHIBITORS FOR MODULATING DISEASES ASSOCIATED WITH ALTERATIONS IN PROTEIN CONFORMATION” (ORYZON GENOMICS S.A., priority 2010, published 2016):

Biological target: Human recombinant monoamine oxidase MAO-B (Homo sapiens, UniProt P27338)
Experiment: biochemical

In the case of `CN1CCN(C(=O)CNC2CC2c2ccc(C3CC3)cc2)CC1` (stereo not shown) [Selective-2], the IC50 is reported as greater than 1000 nM.
